Publication PMC6268262, “Improved Antileishmanial Activity of Dppz through Complexation with Antimony(III) and Bismuth(III): Investigation of the Role of the Metal” (Molecules, 2012)

Test system: mouse peritoneal macrophages
Test: Cytotoxicity assay against peritoneal macrophages (MTT)
Type: cell-based
Conditions: 24 h, read-out: CC50: concentration of dppz which is cytotoxic against 50% of macrophages
Procedure: The concentration of studied compounds which is cytotoxic to 50% of the macrophages (CC50) was determined by 3-(4,5-dimethylthiazol-2-yl)-2,5 diphenyltetrazolium bromide (MTT) method according to Mosmann. Macrophages were obtained by lavage of peritoneal cavity of mice with 10 mL cold RPMI without FBS. After washing, the cell suspension (4.0 × 10^6/mL) was seeded (0.1 mL) in 96-well flat bottom plates. Macrophages were allowed to adhere for 2 h and non-adherent cells were removed by washing with RPMI. Then, the studied compounds were added to the wells at concentrations ranging from 1 to 20 μM and the cells were further cultured in RPMI-1640 supplemented with 10% FBS for 24 h at 37 °C in a humidified 5% CO2 atmosphere. Thereafter, the medium was replaced with fresh RPMI containing 0.5 mg/mL of MTT and the plates were incubated for additional 4 h. Supernatants were aspirated and the formazan crystals formed were dissolved in 100 μL of DMSO. After 15 min of incubation at room temperature, absorbance of solubilized MTT formazan product was spectrophotometrically measured at 570 nm.
The IC50 and CC50 values were calculated by nonlinear regression using the software GraphPad Prism 5.0. The acceptable level of significance was 95% (p < 0.05).

## [Bi(dppz)Cl3] [complex 2]
  CC50: 4.8 µM
